Measured values from ChEMBL document CHEMBL3272065 (J Med Chem, 1977).

Tests used:
[1] = Half life of the compound at pH 7.4 at 37 degC at 1 x 10' -2 M; details: pH 7.4, 10000 µM
[2] = Hydrolysis of the compound at pH 7.4 at 37 degC assessed as first-order rate coefficient at 1 x 10' -2 M; details: buffer, pH 7.4, 10000 µM
[3] = Half life of the compound at pH 2.6 at 37 degC at 6.56 x 10' -3 M; details: pH 2.6, 6560 µM
[4] = Hydrolysis of the compound at pH 7.4 at 37 degC assessed as first-order rate coefficient at 1.31 x 10' -2 M; details: buffer, pH 7.4, 13100 µM
[5] = Hydrolysis of the compound at pH 5.4 at 37 degC assessed as first-order rate coefficient at 6.56 x 10' -3 M; details: buffer, pH 5.4, 6560 µM
[6] = Half life of the compound at pH 5.4 at 37 degC at 6.56 x 10' -3 M; details: pH 5.4, 6560 µM
[7] = Hydrolysis of the compound at 310.2 K assessed as first-order rate coefficient at 6.56 x 10' -3 M; details: 6560 µM
[8] = Hydrolysis of the compound at pH 2.6 at 37 degC assessed as first-order rate coefficient at 6.56 x 10' -3 M; details: buffer, pH 2.6, 6560 µM
[9] = Half life of the compound at pH 7.4 at 37 degC at 1.31 x 10' -2 M; details: pH 7.4, 13100 µM
[10] = Hydrolysis of the compound at 302.2 K assessed as first-order rate coefficient at 6.56 x 10' -3 M; details: 6560 µM
[11] = Hydrolysis of the compound at pH 7.4 at 37 degC assessed as first-order rate coefficient at 6.56 x 10' -3 M; details: buffer, pH 7.4, 6560 µM
[12] = Hydrolysis of the compound at 296.7 K assessed as first-order rate coefficient at 6.56 x 10' -3 M
[13] = Hydrolysis of the compound at 23.5 to 37.0 degC assessed as activation energy at 6.56 x 10' -3 M; details: 6560 µM
[14] = Half life of the compound at pH 7.4 at 37 degC at 6.56 x 10' -3 M; details: pH 7.4, 6560 µM
[15] = Half life of the compound at pH 7.4 at 37 degC at 6.55 x 10' -3 M; details: pH 7.4, 6550 µM
[16] = Hydrolysis of the compound at pH 7.4 at 37 degC assessed as first-order rate coefficient at 1.33 x 10' -2 M; details: buffer, pH 7.4, 13300 µM
[17] = Hydrolysis of the compound at pH 7.4 at 37 degC assessed as first-order rate coefficient at 6.55 x 10' -3 M; details: buffer, pH 7.4, 6550 µM
[18] = Half life of the compound at pH 7.4 at 37 degC at 1.33 x 10' -2 M; details: pH 7.4, 13300 µM
[19] = Half life of the compound at pH 7.4 at 37 degC at 6.57 x 10' -3 M; details: pH 7.4, 6570 µM
[20] = Half life of the compound at pH 7.4 at 37 degC at 9.03 x 10' -3 M; details: pH 7.4, 9030 µM
[21] = Hydrolysis of the compound at pH 7.4 at 37 degC assessed as first-order rate coefficient at 9.03 x 10' -3 M; details: buffer, pH 7.4, 9030 µM
[22] = Hydrolysis of the compound at pH 7.4 at 37 degC assessed as first-order rate coefficient at 1.03 x 10' -2 M; details: buffer, pH 7.4, 10300 µM
[23] = Hydrolysis of the compound at pH 7.4 at 37 degC assessed as first-order rate coefficient at 6.57 x 10' -3 M; details: buffer, pH 7.4, 6570 µM
[24] = Half life of the compound at pH 7.4 at 37 degC at 1.03 x 10' -2 M; details: pH 7.4, 10300 µM
[25] = Half life of the compound at pH 7.4 at 37 degC at 1.20 x 10' -2 M; details: pH 7.4, 12000 µM
[26] = Half life of the compound at pH 7.4 at 37 degC at 6.21 x 10' -3 M; details: pH 7.4, 6210 µM
[27] = Hydrolysis of the compound at pH 7.4 at 37 degC assessed as first-order rate coefficient at 1.20 x 10' -2 M; details: buffer, pH 7.4, 12000 µM
[28] = Hydrolysis of the compound at pH 7.4 at 37 degC assessed as first-order rate coefficient at 6.21 x 10' -3 M; details: buffer, pH 7.4, 6210 µM

SMILES: O=C(CCSCCCl)Nc1ccc(P(=O)(O)O)cc1
- t1/2 [1]: 2.33 min
- K [2]: 4.8 ×10⁻³ /s

SMILES: O=C(CCCSCCCl)Nc1ccc([As](=O)(O)O)cc1
- t1/2 [3]: 1.67 min
- K [4]: 7.8 ×10⁻³ /s
- K [5]: 9.4 ×10⁻³ /s
- t1/2 [6]: 1.22 min
- K [7]: 2.02 ×10⁻² /s
- K [8]: 6.6 ×10⁻³ /s
- t1/2 [9]: 1.47 min
- K [10]: 7.75 ×10⁻³ /s
- K [11]: 2 ×10⁻² /s
- K [12]: 3.48 ×10⁻³ /s
- Ea [13]: 23.3 kcal/mol
- t1/2 [14]: 0.567 min

SMILES: O=C(CCCSCCCl)Nc1ccc(P(=O)(O)O)cc1
- t1/2 [15]: 1.3 min
- t1/2 [1]: 1.67 min
- K [16]: 5.6 ×10⁻³ /s
- K [2]: 6.8 ×10⁻³ /s
- K [17]: 8.9 ×10⁻³ /s
- t1/2 [18]: 2 min

SMILES: O=C(CCSCCCl)Nc1ccc([As](=O)(O)O)cc1
- K [4]: 5.6 ×10⁻³ /s
- t1/2 [19]: 1.22 min
- t1/2 [20]: 1.5 min
- K [21]: 7.6 ×10⁻³ /s
- K [22]: 7 ×10⁻³ /s
- t1/2 [9]: 2 min
- K [23]: 9.5 ×10⁻³ /s
- t1/2 [24]: 1.65 min

SMILES: O=C(CCCSCCCl)Nc1ccc(O)cc1
- t1/2 [25]: 1.23 min
- t1/2 [26]: 1.15 min
- K [27]: 9.4 ×10⁻³ /s
- K [28]: 1 ×10⁻² /s
